# Columns and labels:
# Sequences of proteins named here, by UniProt entry; tags and fusion partners are left off. Residues count along the entry.
# UniProt P37231, 231-505: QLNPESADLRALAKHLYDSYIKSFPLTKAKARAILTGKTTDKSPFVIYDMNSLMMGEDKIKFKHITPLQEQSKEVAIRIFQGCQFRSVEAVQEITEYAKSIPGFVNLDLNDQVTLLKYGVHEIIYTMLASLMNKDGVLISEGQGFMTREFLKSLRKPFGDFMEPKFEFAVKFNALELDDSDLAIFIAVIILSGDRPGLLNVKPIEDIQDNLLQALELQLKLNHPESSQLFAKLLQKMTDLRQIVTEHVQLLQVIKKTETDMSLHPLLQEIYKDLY
# [1] = target: T1, full-length human PPARγ (isoform 2) (Homo sapiens, UniProt P37231); experiment: Transcriptional reporter assay (3xPPRE-luciferase) in HEK293T cells transfected with full-length PPARγ; type: cell-based; details: 3xPPRE-luciferase reporter
# T1 construct: full-length human PPARγ (isoform 2) expression plasmid; expressed in transfected cells; host or cells: HEK293T (ATCC #CRL-11268)
# Protocol: 1 Pharmacological PPARγ ligand set used in this study. (A) Chemical structures and pharmacological properties of the ligands. […] (B) Transcriptional reporter assay performed in HEK293T cells transfected with a full-length PPARγ expression plasmid and a 3xPPRE-luciferase reporter plasmid. Data were normalized to cells treated with DMSO control, represented as mean ± s.d.
# After an 18 h incubation, cells were transferred to white 384-well cell culture plates (Thermo Fisher Scientific) at 10,000 cells/well in 20 μL total volume/well. After a 4 h incubation, cells were treated in quadruplicate with 20 μL of either vehicle control (1.5% DMSO in DMEM) or a 3-fold serial dilution of ligands (1 μM highest ligand concentration). After a final 18 h incubation, cells were harvested with 20 μL of Britelite Plus (PerkinElmer), and luminescence was measured on a BioTek Synergy Neo multimode plate reader. Data were plotted in GraphPad Prism as luminescence vs ligand concentration as mean ± s.d. (n = 4) and fit to a three-parameter sigmoidal dose–response curve equation.
# [2] = target: T2, PPARγ LBD / NCoR1 corepressor peptide (Homo sapiens, UniProt P37231); experiment: TR-FRET coregulator interaction assay, NCoR1 corepressor peptide; type: biochemical
# T2 construct: residues 203–477 (isoform 1 numbering) with a TEV-cleavable N-terminal hexa-his-tag; made in house; host or cells: Escherichia coli BL21(DE3), pET46 plasmid
# Description: (§1) We next characterized the ligand set using biochemical assays that report on ligand-dependent changes in the interaction between PPARγ LBD and FITC-labeled peptides derived from NR coregulator proteins that contribute to PPARγ-mediated transcription in cells, including the TRAP220/MED1 coactivator and NCoR1 corepressor. We used time-resolved fluorescence resonance energy transfer (TR-FRET) assays to determine relative ligand potency (or covalent reactivity) and efficacy (via increased or decreased TR-FRET ratio values). […] We performed fluorescence polarization (FP) assays to directly measure binding affinities between the PPARγ LBD and coregulator peptides.
# (§2) 2 Biochemical coregulator profiling data. Time-resolved fluorescence resonance energy transfer (TR-FRET) coregulator interaction assay performed with (A) the NCoR1 corepressor peptide or (B) the TRAP220/MED1 coactivator peptide in the presence of the indicated ligands. Data represent mean ± s.e.m. […] Fluorescence polarization (FP) binding assay performed with (C) NCoR1 corepressor peptide or (D) TRAP220/MED1 coactivator peptide in the presence of the indicated ligands. Data represent mean ± s.e.m. […]
# (§3) Time-resolved fluorescence resonance energy transfer (TR-FRET) coregulator peptide interaction assays were performed in low-volume black 384-well plates (Greiner) using a 23 μL final well volume. […]
# [3] = target: T3, PPARγ LBD / TRAP220/MED1 coactivator peptide (Homo sapiens, UniProt P37231); experiment: TR-FRET coregulator interaction assay, TRAP220/MED1 coactivator peptide; type: biochemical
# T3 construct: residues 203–477 (isoform 1 numbering) with a TEV-cleavable N-terminal hexa-his-tag; made in house; host or cells: Escherichia coli BL21(DE3), pET46 plasmid
# Description: as §1, §2, §3
structure (smiles),measurement,setting,value
CN(CCOc1ccc(CC2SC(=O)NC2=O)cc1)c1ccccn1 (stereo not drawn) [rosiglitazone],effect on PPARγ-mediated transcription (in words),[1],increased transcription
same,"effect on NCoR1 corepressor peptide interaction, TR-FRET efficacy (in words)",[2],decreased NCoR1 corepressor interaction
same,"effect on TRAP220/MED1 coactivator peptide interaction, TR-FRET efficacy (in words)",[3],increased TRAP220/MED1 coactivator interaction

# — paper PMC12406200, “Structural Basis of PPARγ-Mediated Transcriptional Repression by the Covalent Inverse Agonist FX-909” (Journal of Medicinal Chemistry, 2025)
